{"source": "patent US7109329B2", "about": "“Neurologically active compounds and compounds with multiple activities” (priority 1988, dated 2006)", "experiment": "Brain and core temperature of treated rats in a room at 4°–5°", "assay_type": "in vivo, Sprague-Dawley rats", "details": "12 mg/kg IP", "data": [{"smiles": "N=C(N)N/N=C/c1c(Cl)cccc1Cl", "note": "[guanabenz]", "values": [{"measurement": "colonic (core) temperature after 15 minutes", "result": "approximately 24 °C"}, {"measurement": "colonic (core) temperature after 22 minutes", "result": 22, "unit": "°C"}, {"measurement": "colonic (core) temperature after 30 minutes", "result": 20, "unit": "°C"}, {"measurement": "colonic (core) temperature after 45 minutes", "result": 17, "unit": "°C"}]}]}
